Several values for one entry are separate records, joined by “and”; a condition that tells them apart may be missing. Identical values can stand only once.
Columns and labels:
Vero cells = test: Vero cell cytotoxicity, resazurin dye reduction assay; settings: read-out: IC50 Vero cells; Vero cell growth inhibition, 48 h then resazurin overnight
human ENPP1 = human ENPP1 (Homo sapiens, UniProt P22413); test: Luminescence-based AMP-Glo ENPP1 enzyme inhibition assay with 2′,3′-cGAMP substrate; settings: for IC50 ENPP1: 2′,3′-cGAMP 300 µM, ENPP1 5 µM; for IC50: read-out: IC50 ENPP1, 2′,3′-cGAMP 300 µM, ENPP1 5 µM

Chains of the proteins cited; added tags and fusions are not shown.
UniProt P22413, whole entry: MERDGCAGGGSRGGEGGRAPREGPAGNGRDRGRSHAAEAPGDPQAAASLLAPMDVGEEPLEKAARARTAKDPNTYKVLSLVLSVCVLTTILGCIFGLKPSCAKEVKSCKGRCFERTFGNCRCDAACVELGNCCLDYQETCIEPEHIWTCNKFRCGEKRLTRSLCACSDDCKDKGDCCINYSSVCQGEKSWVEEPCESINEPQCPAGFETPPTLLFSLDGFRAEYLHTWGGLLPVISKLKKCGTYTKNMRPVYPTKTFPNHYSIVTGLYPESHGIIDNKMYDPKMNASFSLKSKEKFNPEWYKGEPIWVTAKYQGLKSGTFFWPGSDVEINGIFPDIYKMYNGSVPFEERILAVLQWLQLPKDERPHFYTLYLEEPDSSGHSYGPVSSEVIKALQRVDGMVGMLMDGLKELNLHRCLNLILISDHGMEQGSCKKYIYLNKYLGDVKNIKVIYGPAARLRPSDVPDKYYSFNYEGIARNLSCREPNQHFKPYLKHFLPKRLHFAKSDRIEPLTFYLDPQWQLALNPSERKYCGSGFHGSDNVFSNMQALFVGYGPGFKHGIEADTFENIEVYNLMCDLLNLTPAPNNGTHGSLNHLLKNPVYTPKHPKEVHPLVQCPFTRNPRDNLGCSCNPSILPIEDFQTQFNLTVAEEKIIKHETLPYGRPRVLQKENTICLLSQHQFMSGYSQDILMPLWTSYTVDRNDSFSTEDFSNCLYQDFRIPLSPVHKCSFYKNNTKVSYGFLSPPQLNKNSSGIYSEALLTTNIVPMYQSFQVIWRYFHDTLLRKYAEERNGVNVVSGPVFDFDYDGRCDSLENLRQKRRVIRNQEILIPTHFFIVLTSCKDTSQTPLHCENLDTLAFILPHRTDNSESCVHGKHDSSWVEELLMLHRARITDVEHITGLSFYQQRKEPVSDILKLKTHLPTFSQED

Structure (SMILES) | IC50 (Vero cells) [µM] | IC50 ENPP1 (human ENPP1) [µg/mL] | IC50 (human ENPP1)
c1ccc(CN2CN(Cc3ccccc3)CN(Cc3ccccc3)C2)cc1 | > 279 | > 100 | > 279 µM
C[N+]1(CCC[N+]2(C)CC3C4CCCCC4=C4CCCCC4C3C2)CCOCC1 (stereo not drawn) | 156 | 10 | 15 µM and 15.6 µM
